{
  "source": "IntAct's records for PubMed 16959574",
  "parents": {"B1": {"name": "Glycogen synthase kinase-3 beta (Homo sapiens), P49841 (parent)", "chain": "MSGRPRTTSFAESCKPVQQPSAFGSMKVSRDKDGSKVTTVVATPGQGPDRPQEVSYTDTKVIGNGSFGVVYQAKLCDSGELVAIKKVLQDKRFKNRELQIMRKLDHCNIVRLRYFFYSSGEKKDEVYLNLVLDYVPETVYRVARHYSRAKQTLPVIYVKLYMYQLFRSLAYIHSFGICHRDIKPQNLLLDPDTAVLKLCDFGSAKQLVRGEPNVSYICSRYYRAPELIFGATDYTSSIDVWSAGCVLAELLLGQPIFPGDSGVDQLVEIIKVLGTPTREQIREMNPNYTEFKFPQIKAHPWTKVFRPRTPPEAIALCSRLLEYTPTARLTPLEACAHSFFDELRDPNVKLPNGRDTPALFNFTTQELSSNPPLATILIPPHARIQAAASTPTNATAASDANTGDRGQTNNAASASASNST"}},
  "data": [
    {"variants_of": "B1", "conditions": "with tsc2_rat Tsc2, P49816", "values": [
      {"variant": "S9A", "effect of a mutation on the interaction": "increasing interaction"}
    ]}
  ]
}
